This assay concerns the target Melanin-concentrating hormone receptor 1 (Homo sapiens, UniProt Q99705). In words: Inhibition of calcium influx into cells expressing hMCH-R1 in FLIPR assay. In kind it is functional.

Chains of the proteins cited; added tags and fusions are not shown.
UniProt Q99705, whole entry: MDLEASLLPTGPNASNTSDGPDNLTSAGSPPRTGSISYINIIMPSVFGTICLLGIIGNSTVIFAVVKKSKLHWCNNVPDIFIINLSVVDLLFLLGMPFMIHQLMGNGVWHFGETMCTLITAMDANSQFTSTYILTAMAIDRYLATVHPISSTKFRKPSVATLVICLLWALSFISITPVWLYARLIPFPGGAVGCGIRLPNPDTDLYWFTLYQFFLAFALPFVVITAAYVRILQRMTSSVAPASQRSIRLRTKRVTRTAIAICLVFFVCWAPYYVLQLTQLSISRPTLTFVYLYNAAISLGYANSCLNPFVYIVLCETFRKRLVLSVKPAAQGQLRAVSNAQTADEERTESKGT

In the case of `N#Cc1cccc(-c2ccc(N(C(=O)Nc3ccc(F)c(Cl)c3)C3CCN(C4CCCC4)CC3)cc2)c1`, the Kb worked out at 1.3 nM. On to `N#Cc1cccc(-c2ccc(N(C(=O)Nc3cc(Cl)cc(Cl)c3)C3CCN(C4CCCC4)CC3)cc2)c1`, for which the Kb turned out to be 5.5 nM.

The record behind these values is ChEMBL document CHEMBL1140323, “Biaryl ureas as potent and orally efficacious melanin concentrating hormone receptor 1 antagonists for the treatment of obesity” (J Med Chem, 2005).
